According to patent US10420803B2, “Differentiation of pluripotent stem cells to intestinal midgut endoderm cells” (Janssen Biotech, Inc., priority 2016, dated 2019):

Key:
[1] = test system: H1-hESC-derived S3D5 cells; assay: FACS quantification of protein co-presence in S3D5 cells; assay type: cell-based, human
From the text: (§1) Differentiation: The cultures were differentiated using the following protocol. During Stages 1 through 3 of the protocol, cultures were maintained on planar adherent cultures. Others, however, have described differentiation using suspension culture including US US2014/0242693, which is incorporated by reference in its entirety; the protocol described herein can be modified and performed in suspension, which provides for scalability of manufacturing. The following nomenclature, S#D#, specifies exact time during Stages 1 through 3. For example, S1D3 is stage 1 day 3. Briefly, each stage defines differentiation towards definitive endoderm (stage 1), primitive gut tube (stage 2), and intestinal midgut endoderm (stage 3). • a. Stage 1 (3 days): Cells were cultured for one day in the following Stage 1 media:
Quantification of differentiated cells: For quantification of protein presence co-localization, S3D5 cells were harvested and analyzed by FACS. FACS staining was conducted as described in Nature Biotechnology, 2014 (32) 11, 1121-1133, incorporated herein by reference in its entirety, and using the antibodies listed in Table II. In brief, differentiated cells were incubated in TrypLE™ Express (Life Technologies, Carlsbad, Calif., Catalog No. 12604) for 5-10 minutes at 37° C., released into a single-cell suspension, after which they were washed twice with a staining buffer of PBS containing 0.2% BSA (BD Biosciences, San Jose, Calif., Catalog No. 554657). Intracellular antibody staining was accomplished by utilizing the LIVE/DEAD Violet Fluorescent reactive dye (Life Technologies, Carlsbad, Calif., Catalog No. L34955) at 4° C. for 30 minutes followed by a single wash in cold PBS. Fixing of cells was in 300 μl of Cytofix/Cytoperm Buffer (BD Biosciences, San Jose, Calif., Catalog No. 554723) followed by two washes in Perm/Wash Buffer (BD Biosciences, San Jose, Calif., Catalog No. 554722). Cells were then incubated with the appropriate antibodies at 4° C. for 30 minutes (for unconjugated antibodies) or 1 hour (for conjugated antibodies), and then washed twice prior to analysis on the BD FACS Canto II using BD FACS Diva Software with at least 30,000 events being acquired. Non-viable cells were excluded during FACS analysis, and gating was determined by using isotype antibodies (“IgG”). IgG FACS data is shown as the top panel for each FACS experiment presented. Antibodies were tested for specificity using positive controls, such as Caco-2 cells, or negative controls, such as S1D3 definitive endoderm (“DE”) cells.

[2] = test system: H1-hESC-derived S3D5 cells; assay: Gene expression by qPCR (Taqman Arrays) in S3D5 cells; assay type: cell-based, human
From the text: as §1
For quantification of gene expression at various stages, Caco-2, H1-hESC, S1D3, S2D2, S3D2 and S3D5 cells were harvested, as described in Nature Biotechnology, 2014 (32) 11, 1121-1133. Briefly, gene expression was assessed in cells using custom Taqman® Arrays (Applied Biosystems, Foster City, Calif.); Open Array® (OA) was used for CDX2, FOXA2, SOX2, SOX9, PDX1, ALB, PTF1A, and Taqman® Low Density Array (TLDA) was used for KLF5, HOXC5, and LGR5, with housekeeping gene GAPDH used for both tests. Data were analyzed using Sequence Detection Software (Applied Biosystems, Foster City, Calif.), and normalized using GAPDH as a housekeeping gene to undifferentiated H1-hESC using the ΔΔCt method. Primer details are outlined in Table IV.

[3] = S3D5, compared to pancreas-biased S4D3 cells

BMP2: Bone morphogenic protein-2, alternative to BMP4 during Stage 3, with retinoic acid in BLAR medium
S3D5 cells exhibiting SOX2 and CDX2 co-presence [1]: 0.8% | percent of cells co-positive for both CDX2 and PDX1 [1]: 45.5% | percent of cells co-present for both CDX2 and SOX9 [1]: 99.8% | percent of S3D5 cells co-present for both CDX2 and FOXA2 protein ([1]; Stage 3 in BLAR medium with 1 μM retinoic acid and 50 ng/ml BMP): 94% | percentage KI67-protein positive cells of total S3D5 cells ([1]; total cells >90% CDX2-positive): 14.1% | ALB gene expression ([2]; S3D5): not observed | HOXA13 gene expression ([2]; S3D5): not induced | HOXC5 gene expression ([2]; S3D5): strongly induced | KLF5 gene expression ([2]; S3D5): strongly upregulated | LGR5 gene expression ([2]; S3D5): not induced | SOX2 gene expression ([2]; S3D5): below levels seen in hESC and Caco-2 cells | SOX9 gene expression ([2]; S3D5, compared to Caco-2 cells): Strong induction | PDX1 gene expression [2, 3]: induced at low levels | PTF1A gene expression [2, 3]: not induced | CDX2 gene expression ([2]; during Stage 3): induced | FOXA2 gene expression ([2]; during Stage 3): maintained
